# Experimental data taken from patent US9605024B2, “PAR4 agonist peptides” (Bristol-Myers Squibb Company, priority 2012, dated 2017).
# Chains of the proteins cited; added tags and fusions are not shown. Residues count along the entry.
# UniProt Q96RI0, 18-385: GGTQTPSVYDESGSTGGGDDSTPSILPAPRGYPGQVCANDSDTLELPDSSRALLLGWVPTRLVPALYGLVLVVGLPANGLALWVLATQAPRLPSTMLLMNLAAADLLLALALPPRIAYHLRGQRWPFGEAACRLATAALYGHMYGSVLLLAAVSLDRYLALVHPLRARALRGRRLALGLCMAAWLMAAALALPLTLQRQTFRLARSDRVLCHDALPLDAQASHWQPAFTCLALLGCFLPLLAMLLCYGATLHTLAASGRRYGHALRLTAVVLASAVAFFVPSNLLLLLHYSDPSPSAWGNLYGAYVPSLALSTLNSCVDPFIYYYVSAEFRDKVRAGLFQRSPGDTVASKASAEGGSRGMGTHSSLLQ
# Key:
# Assay type in all cases: cell-based
# PAR4 [1] = target: T1, PAR4 (Homo sapiens (Human), UniProt Q96RI0); assay: FLIPR assay in PAR4-expressing HEK293 cells, test for agonist activity of PAR4 agonist peptides; conditions: calcium mobilization in HEK293 cells expressing human PAR4
# Excerpt: (§1) HEK293 cells stably expressing PAR4 were generated by a standard method of transfection of human […] cDNA expression vector or by RAGE technology from Athersys Inc. (Cleveland, Ohio) and selected based on PAR4 protein expression of mRNA expression. […] These cells express endogenous PAR1 and can elicit calcium signal upon stimulation with PAR1 agonist peptide.
# PAR4 [2] = target: T1, PAR4; assay: FLIPR assay in PAR4-expressing HEK293 cells, test for antagonist activity; conditions: H-Ala-Phe(4-F)-Pro-Gly-Trp-Leu-Val-Lys-Asn-Gly-NH2-induced calcium mobilization
# Excerpt: The FLIPR assay is an exemplary in vitro assay for measuring the activity of the PAR4 antagonists of the present invention. In this assay, intracellular calcium mobilization is induced in PAR4 expressing cells by a PAR4 agonist and calcium mobilization is monitored. See, e.g., Example A. The FLIPR assay is also an exemplary in vitro assay for measuring the agonist activity of PAR4 agonist peptides. See Example H.
# as §1
# Counter screens for agonist activity and PAR1 antagonist activity were also performed. Briefly, HEK293 EBNA PAR4 clone 20664.1J cells were plated 24 hrs. prior to experiment in 384 well, Poly-D-Lysine coated, black, clear bottom plates (Greiner Bio-One, Monroe, N.C.). Cells were plated at 20,000 cells/well in 20 μl growth medium and incubated at 37° C. with 5% CO2 overnight. […]
# PAR4 [3] = target: T1, PAR4; assay: Gamma thrombin induced platelet aggregation assay (PRP assay); conditions: platelet rich plasma
# Procedure: The platelet rich plasma was isolated by centrifugation at 170 g for 14 minutes.
# The ability of the compounds of the current invention to inhibit platelet aggregation induced by gamma-thrombin was tested in a 96-well microplate aggregation assay format. Briefly, PRP or washed platelet suspension (100 μl) was pre-incubated for 5 minutes at room temperature with varying concentrations of compounds. Aggregation was initiated by ˜10-50 nM gamma thrombin (Haematologic Technologies, Essex Junction, Vt.), which was titrated daily to achieve 80% platelet aggregation. Refludan at 1 U/mL (Berlex, Montville, N.J.) was added to the gamma thrombin sample to prevent PAR1 activation induced by residual alpha-thrombin contamination. The plate was then placed into a 37° C. Molecular Devices (Sunnyvale, Calif.) SPECTRAMAX® Plus Plate Reader. […] The plate also included an untreated control sample which served as ODmax, while buffer containing no platelets was the ODmin. Platelet aggregation was determined by subtracting the ODmax from the ODmin for the 100% aggregation value. In experimental samples, the observed transmission was subtracted from the minimum value and then compared to the 100% aggregation value to determine the percentage aggregation. IC50 values are determined using Excel Fit software.
SMILES,EC50 (PAR4 [1]),pEC50 (PAR4 [2]),pIC50 (PAR4 [3])
"C[C@H](N)C(=O)N[C@@H](Cc1ccc(O)cc1)C(=O)N1CCC[C@H]1C(=O)NCC(=O)N[C@@H](CCCCN)C(=O)N[C@@H](Cc1ccccc1)C(N)=O [SEQ ID NO: 1, AYPGKF]",61 µM,,
COc1cc(OCc2csc(-c3ccncc3)n2)c2cc(-c3cn4nc(OC)sc4n3)oc2c1 [Example 28],,9.29,8.54

# pEC50, pIC50: −log10 of the molar value.
